How the values were obtained:
Mus musculus [1] = test: Anti-autoimmune disease activity in Balb/c mouse assessed as reduction in anti-DNP induced IgM producing B cells administered twice orally at 12 hrs interval immunized post 1 hr first treatment measured after 8 days by ELISA; format: functional, organism-based; conditions: time 8.0 day
Mus musculus [2] = test: Anti-autoimmune disease activity in Balb/c mouse assessed as reduction in anti-DNP induced IgG producing B cells administered twice orally at 12 hrs interval immunized post 1 hr first treatment measured after 8 days by ELISA; format: functional, organism-based; conditions: time 8.0 day

C[C@H]1COC[C@H](C)N1c1c(NC(=O)Nc2ccnc(C(F)(F)F)c2)cnc2cc(Cl)nn12
Activity (Mus musculus [1]): Dose-dependent effect
Activity (Mus musculus [2]): Dose-dependent effect

From ChEMBL document CHEMBL4673331 (J Med Chem, 2020)
